PubChem BioAssay AID1145 (ChemBank, 2008)
The list shows a part of the results, in another mix than the full data. Active and inactive are the calls of the source.

assay: basal CRE-LacZ reporter activity in PC12 – cell-based, unstimulated, primary screen (AID 1145); conditions: no forskolin, luminescence, 4.5 h, higher = more signal, called active from +8 up or from −8 down

| SMILES | z-score |
| --- | --- |
| COP(=O)(/N=C1/CC(c2ccc(CO)cc2)=CC(C2CC2)N1Cc1cc2c(cc1Br)OCO2)OC (stereo not given) | inactive: 6.21 |
| O=P(/N=C1/CC(CCCO)=CC(C2CC2)N1Cc1sc2ccccc2c1Cl)(Oc1ccccc1)Oc1ccccc1 (stereo not given) | inactive: -0.0243 |
| COP(=O)(/N=C1/CC(CCCO)=CC(c2ccc(CN3CCCC3)cc2)N1Cc1sc2ccccc2c1Cl)OC (stereo not given) | inactive: -1.21 |
| O=P(/N=C1/CC(c2ccc(CO)cc2)=CC(C2CC2)N1Cc1sc2ccccc2c1Cl)(Oc1ccccc1)Oc1ccccc1 (stereo not given) | inactive: 0.462 |
| CN1/C(=N\P(=O)(Oc2ccccc2)Oc2ccccc2)CC(CCCO)=CC1C1CC1 (stereo not given) | inactive: -0.761 |
| O=P(/N=C1/CC(CCCO)=CC(c2ccc(CN3CCCC3)cc2)N1Cc1sc2ccccc2c1Cl)(Oc1ccccc1)Oc1ccccc1 (stereo not given) | inactive: 0.812 |
| COP(=O)(/N=C1/CC(CCCO)=CC(c2cccs2)N1C)OC (stereo not given) | inactive: -0.96 |
| COP(=O)(/N=C1/CC(CCCO)=CC(C2CC2)N1C)OC (stereo not given) | inactive: -0.163 |
| COP(=O)(/N=C1/CC(CCCO)=CC(c2ccc(CN3CCCC3)cc2)N1C)OC (stereo not given) | inactive: 0.406 |
| COP(=O)(/N=C1/CC(CCCO)=CC(C)N1Cc1cccc(OC(F)(F)F)c1)OC (stereo not given) | inactive: 0.755 |
| COP(=O)(/N=C1/CC(CCCO)=CC(C2CC2)N1Cc1sc2ccccc2c1Cl)OC (stereo not given) | inactive: 0.378 |
| COP(=O)(/N=C1/CC(c2ccc(CO)cc2)=CC(C2CC2)N1C)OC (stereo not given) | inactive: 0.48 |
| O=P(/N=C1/CC(c2ccc(CO)cc2)=CC(C2CC2)N1Cc1cc2c(cc1Br)OCO2)(Oc1ccccc1)Oc1ccccc1 (stereo not given) | inactive: 0.0655 |
| O=P(/N=C1/CC(c2ccc(CO)cc2)=CC(c2cccs2)N1Cc1cccc(OC(F)(F)F)c1)(Oc1ccccc1)Oc1ccccc1 (stereo not given) | inactive: -0.141 |
| COP(=O)(/N=C1/CC(c2ccc(CO)cc2)=CC(c2cccs2)N1C)OC (stereo not given) | inactive: 1.04 |
| CN1/C(=N\P(=O)(Oc2ccccc2)Oc2ccccc2)CC(CCCO)=CC1c1ccc(CN2CCCC2)cc1 (stereo not given) | inactive: 0.272 |
| O=P(/N=C1/CC(CCCO)=CC(c2cccs2)N1Cc1cc2c(cc1Br)OCO2)(Oc1ccccc1)Oc1ccccc1 (stereo not given) | inactive: 0.245 |
| COP(=O)(/N=C1/CC(CCCO)=CC(c2ccc(CN3CCCC3)cc2)N1Cc1cccc(OC(F)(F)F)c1)OC (stereo not given) | inactive: -0.466 |
| CN1/C(=N\P(=O)(Oc2ccccc2)Oc2ccccc2)CC(c2ccc(CO)cc2)=CC1c1cccs1 (stereo not given) | inactive: -0.141 |
| COP(=O)(/N=C1/CC(c2ccc(CO)cc2)=CC(C2CC2)N1Cc1sc2ccccc2c1Cl)OC (stereo not given) | inactive: 2.67 |
| COP(=O)(/N=C1/CC(CCCO)=CC(C2CC2)N1Cc1cc2c(cc1Br)OCO2)OC (stereo not given) | inactive: -0.611 |
| CN1/C(=N\P(=O)(Oc2ccccc2)Oc2ccccc2)CC(CCCO)=CC1c1cccs1 (stereo not given) | inactive: 3.69 |
| COP(=O)(/N=C1/CC(CCCO)=CC(C2CC2)N1Cc1cccc(OC(F)(F)F)c1)OC (stereo not given) | inactive: -0.219 |
| O=P(/N=C1/CC(CCCO)=CC(C2CC2)N1Cc1cc2c(cc1Br)OCO2)(Oc1ccccc1)Oc1ccccc1 (stereo not given) | inactive: 2.81 |
| COP(=O)(/N=C1/CC(CCCO)=CC(c2ccc(CN3CCCC3)cc2)N1Cc1cc2c(cc1Br)OCO2)OC (stereo not given) | inactive: -0.102 |
| O=P(/N=C1/CC(CCCO)=CC(c2ccc(CN3CCCC3)cc2)N1Cc1cc2c(cc1Br)OCO2)(Oc1ccccc1)Oc1ccccc1 (stereo not given) | inactive: -0.258 |
| CC1C=C(CCCO)C/C(=N/P(=O)(Oc2ccccc2)Oc2ccccc2)N1Cc1cccc(OC(F)(F)F)c1 (stereo not given) | inactive: 6.8 |
| O=P(/N=C1/CC(CCCO)=CC(c2cccs2)N1Cc1cccc(OC(F)(F)F)c1)(Oc1ccccc1)Oc1ccccc1 (stereo not given) | inactive: 0.209 |
| CN1/C(=N\P(=O)(Oc2ccccc2)Oc2ccccc2)CC(c2ccc(CO)cc2)=CC1C1CC1 (stereo not given) | inactive: 1.76 |
| O=P(/N=C1/CC(CCCO)=CC(C2CC2)N1Cc1cccc(OC(F)(F)F)c1)(Oc1ccccc1)Oc1ccccc1 (stereo not given) | inactive: 0.904 |
